Residues, ends and D or L forms follow the SMILES beside them. *: point of attachment. Cbz = O=C(OCc1ccccc1)*; CH2F = FC*
What follows are compounds tested on HeLa cells (assay: MTS cell viability assay). Settings: HeLa cells treated with eMTDΔ4 in the presence of the inhibitor (Fig. 1d-f, Extended Data Fig. 1b).

Compound | inhibition of eMTD∆4-induced cell death by cell death inhibitor
CO/C1=C\C(C)=C\[C@@H](C)[C@@H](O)[C@@H](C)C/C(C)=C/C=C/[C@H](OC)[C@@H]([C@@H](C)[C@@H](O)[C@H](C)[C@@]2(O)C[C@@H](O)[C@H](C)[C@@H](C(C)C)O2)OC1=O [Bafilomycin A1, reference compound] | not inhibited
CC(C)S(=O)(=O)c1ccc2nccc(Nc3ccc4scnc4c3)c2c1 [GSK 872, reference compound] | not inhibited
CN1C(=O)C(Cc2c[nH]c3ccccc23)NC1=S (stereo not shown) [Necrostatin-1, reference compound] | not inhibited
COC(=O)C[C@H](NC(=O)[C@H](C)NC(=O)[C@@H](NC(=O)OCc1ccccc1)C(C)C)C(=O)CF [zVAD-fmk, reference compound] (Cbz-Val-Ala-Asp(OMe)-CH2F) | not inhibited
